Data published in PubChem BioAssay AID624260 (Broad Institute, 2012).
The entries are a selection whose mix differs from that of the whole data set. Some salts or complexes appear as unconnected parts, following the source record. Activity calls are given as the source filed them. No stated cut-off is given here; in the data, active means inhibition above about 54% (passing the limit was not always enough); inconclusive means no clear call, values can overlap the other calls.

Sequences of proteins named here, by UniProt entry; tags and fusion partners are left off.
UniProt O96028, whole entry: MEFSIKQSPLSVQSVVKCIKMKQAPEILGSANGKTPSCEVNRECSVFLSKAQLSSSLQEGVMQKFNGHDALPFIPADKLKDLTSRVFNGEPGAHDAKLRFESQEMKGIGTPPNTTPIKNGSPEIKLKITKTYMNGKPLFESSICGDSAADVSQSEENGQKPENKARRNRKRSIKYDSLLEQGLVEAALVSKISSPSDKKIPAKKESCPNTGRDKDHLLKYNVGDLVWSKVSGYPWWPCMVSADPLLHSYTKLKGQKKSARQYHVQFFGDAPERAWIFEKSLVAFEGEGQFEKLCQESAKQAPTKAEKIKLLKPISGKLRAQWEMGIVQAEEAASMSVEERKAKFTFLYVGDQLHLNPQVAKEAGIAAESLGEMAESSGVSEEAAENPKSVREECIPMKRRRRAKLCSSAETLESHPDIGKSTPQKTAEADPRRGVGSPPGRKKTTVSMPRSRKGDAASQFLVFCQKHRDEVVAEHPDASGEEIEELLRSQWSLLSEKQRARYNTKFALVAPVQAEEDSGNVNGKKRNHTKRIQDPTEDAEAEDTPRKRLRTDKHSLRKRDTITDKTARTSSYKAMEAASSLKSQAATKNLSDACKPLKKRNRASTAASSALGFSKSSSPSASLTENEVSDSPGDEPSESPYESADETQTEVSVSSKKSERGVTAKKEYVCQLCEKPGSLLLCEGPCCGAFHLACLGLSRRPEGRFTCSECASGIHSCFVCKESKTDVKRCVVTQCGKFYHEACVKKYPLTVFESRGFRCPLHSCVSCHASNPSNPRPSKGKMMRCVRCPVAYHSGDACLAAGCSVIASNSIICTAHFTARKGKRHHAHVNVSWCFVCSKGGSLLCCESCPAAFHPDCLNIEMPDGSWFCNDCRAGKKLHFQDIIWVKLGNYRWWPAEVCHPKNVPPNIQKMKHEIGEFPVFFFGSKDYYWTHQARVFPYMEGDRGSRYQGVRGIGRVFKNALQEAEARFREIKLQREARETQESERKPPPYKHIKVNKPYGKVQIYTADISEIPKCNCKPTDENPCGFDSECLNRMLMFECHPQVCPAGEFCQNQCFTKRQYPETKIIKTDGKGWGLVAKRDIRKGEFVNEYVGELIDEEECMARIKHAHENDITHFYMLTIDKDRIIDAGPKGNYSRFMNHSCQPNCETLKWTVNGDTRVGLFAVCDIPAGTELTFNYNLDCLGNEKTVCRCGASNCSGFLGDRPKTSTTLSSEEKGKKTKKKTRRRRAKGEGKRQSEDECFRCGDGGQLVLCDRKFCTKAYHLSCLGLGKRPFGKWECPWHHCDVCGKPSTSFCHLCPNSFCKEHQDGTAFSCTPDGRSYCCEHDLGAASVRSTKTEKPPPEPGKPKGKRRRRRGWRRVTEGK

biological target: Histone-lysine N-methyltransferase NSD2 (Homo sapiens) (UniProt O96028); assay: NSD2 histone methyltransferase activity blockers – biochemical, plate reader, single point, primary screen (AID 624260); conditions: NSD2-SET H3K36me1 DELFIA fluorescence, at 12.5 µM, active compounds read high;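 further: inhibitors reduce the monomethyl H3K36 fluorescence signal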

SMILES | inhibition
C/C1=C2N=C(/C=C3N=C(/C(C)=C4\[N-][C@@](C)([C@@H]5N=C1[C@](C)(CCC(=O)NCC(C)OP(=O)(O)O[C@@H]1[C@H](O)[C@H](n6cnc7cc(C)c(C)cc76)O[C@H]1CO)[C@H]5CC(N)=O)[C@@](C)(CC(N)=O)[C@@H]4CCC(N)=O)[C@@](C)(CC(N)=O)[C@@H]\3CCC(N)=O)C(C)(C)[C@@H]/2CCC(N)=O.[C-]#N.[Co+3] (stereo partly specified) | inactive: -1.77%
